Data on one substance can be found in patent US20050155087A1, “Method of screening compounds” (priority 2001, published 2005).

In the data set the test system is zebrafish (wild-type and SQW mutant strains). Put plainly: carcinogenesis assay.

With N-methyl-N-nitro-N-nitrosoouanidine, under “MNNG 0.5, 1.0 and 2.0 ppm, DMBA 2.5, 5.0 and 10.0 ppm”, the “fish that developed tumors” value was found to be 7.8%. The tumor types result (wild-type fish) is “more mesenchymal and testicular tumors”.
